EC50 data for one compound are collected here from PMC8691691 (ACS Chemical Neuroscience, 2021).

The assay deals with T1, GlyT2 (Rattus norvegicus, UniProt P58295).
T1 construct: expressed in transfected cells; host or cells: COS7
T1 sequence (P58295 1-799): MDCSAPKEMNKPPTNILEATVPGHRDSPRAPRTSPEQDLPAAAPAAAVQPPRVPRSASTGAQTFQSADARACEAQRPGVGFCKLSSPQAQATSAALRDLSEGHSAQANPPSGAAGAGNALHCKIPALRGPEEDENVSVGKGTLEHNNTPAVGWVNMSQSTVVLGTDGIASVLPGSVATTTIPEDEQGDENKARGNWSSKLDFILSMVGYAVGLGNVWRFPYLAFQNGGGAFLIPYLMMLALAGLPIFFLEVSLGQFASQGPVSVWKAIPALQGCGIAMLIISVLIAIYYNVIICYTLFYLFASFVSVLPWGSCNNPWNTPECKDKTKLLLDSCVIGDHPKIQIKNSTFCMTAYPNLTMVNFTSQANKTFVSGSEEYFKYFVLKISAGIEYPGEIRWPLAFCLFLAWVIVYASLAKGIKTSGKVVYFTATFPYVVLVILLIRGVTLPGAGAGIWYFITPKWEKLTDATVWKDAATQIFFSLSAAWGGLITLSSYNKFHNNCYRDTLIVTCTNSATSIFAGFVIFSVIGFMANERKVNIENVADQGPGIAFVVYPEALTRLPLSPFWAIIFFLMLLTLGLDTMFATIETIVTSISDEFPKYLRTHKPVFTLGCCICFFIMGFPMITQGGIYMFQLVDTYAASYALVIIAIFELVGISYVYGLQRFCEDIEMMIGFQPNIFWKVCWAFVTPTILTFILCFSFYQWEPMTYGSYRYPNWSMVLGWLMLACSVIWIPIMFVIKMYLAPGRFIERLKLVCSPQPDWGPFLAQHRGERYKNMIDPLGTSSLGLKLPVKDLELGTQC
Briefly: [3H]glycine transport by recombinant GlyT2 expressed in COS7 cells. The format is cell-based. To be noted: wtGlyT2. How it is done:
Substitution mutants were generated with the QuikChange II Site-Directed Mutagenesis kit (Agilent Technologies, Santa Clara, CA, USA), using rGlyT2 or rGlyT1 subcloned in pCDNA3.[47] The complete coding region of all of the constructs was sequenced to verify that only the desired mutation had been introduced. […] COS7 cells were grown and transfected using Turbofect Transfection Reagent (Thermo Fisher Scientific, Waltham, MA, USA), following the manufacturer’s protocol (2 μL reagent/μg of DNA). Cells were incubated for 48 h at 37 °C until used.
At the end of the desired time (usually 10 min), reactions were washed and terminated by aspiration. […] A nonlinear curve fitting method was used to obtain IC50 values using Graphpad Prism software, version 6.0, Graphpad, San Diego, CA, USA.

As to `NCC(=O)O` [Gly, glycine], the EC50 stood at 120 ± 26 µM.

As usually defined, the EC50 is the concentration giving half of the maximal effect.
